From patent US10906889B2, “Polycyclic inhibitors of cyclin-dependent kinase 7 (CDK7)” (Dana-Farber Cancer Institute, Inc., priority 2013, dated 2021)

By UniProt entry, the sequences of proteins in these tests, tags left out.
UniProt P50613, whole entry: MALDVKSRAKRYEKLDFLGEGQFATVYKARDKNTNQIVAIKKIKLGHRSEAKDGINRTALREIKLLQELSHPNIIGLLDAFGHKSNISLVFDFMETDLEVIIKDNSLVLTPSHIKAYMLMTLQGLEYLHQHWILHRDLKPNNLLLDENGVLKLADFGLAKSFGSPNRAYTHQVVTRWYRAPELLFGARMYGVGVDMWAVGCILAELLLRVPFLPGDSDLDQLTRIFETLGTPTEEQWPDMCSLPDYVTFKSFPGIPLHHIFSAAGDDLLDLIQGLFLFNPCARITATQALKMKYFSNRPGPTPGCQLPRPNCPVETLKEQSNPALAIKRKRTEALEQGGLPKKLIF
UniProt P51946, whole entry partner: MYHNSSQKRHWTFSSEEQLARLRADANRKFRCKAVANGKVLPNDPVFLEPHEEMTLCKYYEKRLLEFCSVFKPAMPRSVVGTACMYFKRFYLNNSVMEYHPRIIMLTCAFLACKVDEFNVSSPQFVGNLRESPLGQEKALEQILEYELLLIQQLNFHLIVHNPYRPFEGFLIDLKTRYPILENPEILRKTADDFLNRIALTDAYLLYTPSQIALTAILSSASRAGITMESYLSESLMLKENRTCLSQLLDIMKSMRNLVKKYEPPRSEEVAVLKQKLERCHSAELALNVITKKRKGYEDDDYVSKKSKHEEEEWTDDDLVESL
UniProt P51948, whole entry partner: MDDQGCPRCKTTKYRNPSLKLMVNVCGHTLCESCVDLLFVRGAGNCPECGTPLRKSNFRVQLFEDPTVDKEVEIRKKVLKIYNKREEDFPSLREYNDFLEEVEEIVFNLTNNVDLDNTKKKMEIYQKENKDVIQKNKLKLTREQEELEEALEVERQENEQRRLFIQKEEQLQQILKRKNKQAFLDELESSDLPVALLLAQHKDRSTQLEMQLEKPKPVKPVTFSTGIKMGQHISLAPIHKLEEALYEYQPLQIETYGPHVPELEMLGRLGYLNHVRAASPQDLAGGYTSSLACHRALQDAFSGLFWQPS

Columns and labels:
CDK7 = CDK7 (Homo sapiens, UniProt P50613); assay: Adapta kinase assay (Life Technologies), CDK7; type: biochemical; conditions: read-out: CDK7 IC50, Table 1C, co-factors cyclin H and MNAT1
Jurkat cells = conditions: read-out: Jurkat IC50; blood cancer cell line; 72 hour

| SMILES | IC50 (CDK7) [nM] | IC50 (Jurkat cells) [nM] |
| --- | --- | --- |
| COCCN1CCN(C/C=C/C(=O)Nc2ccc(C(=O)N[C@H]3CCC[C@@H](Nc4ncc(Cl)c(-c5c[nH]c6ccccc56)n4)C3)cc2)CC1 | < 100 | < 500 |
| O=C(/C=C/CN1CCN(C2CC2)CC1)Nc1ccc(C(=O)N[C@H]2CCC[C@@H](Nc3ncc(Cl)c(-c4cnn5ccccc45)n3)C2)cc1 | < 100 | – |
| O=C(/C=C/CN1CCOCC1)Nc1ccc(C(=O)N[C@H]2CCC[C@@H](Nc3ncc(Cl)c(-c4cnn5ccccc45)n3)C2)cc1 | < 100 | – |
